Reference: PMC7244308 (Science Advances, 2020)

Experiments:
Format in all cases: binding
[1] = target: SLO (Streptococcus pyogenes serotype M1, UniProt P0C0I3); assay: biochemical
[2] = target: Mac-1 + PNGase (Homo sapiens, UniProt P11215)
[3] = target: human Mac-1 (Homo sapiens, UniProt P11215)

| Compound | Kd [1] [nM] | Kd [2] [nM] | Kd [3] [nM] |
| --- | --- | --- | --- |
| CC(C)CCC[C@@H](C)[C@H]1CC[C@H]2[C@@H]3CC=C4C[C@@H](O)CC[C@]4(C)[C@H]3CC[C@]12C [Cholesterol] | 52.3 | – | – |
| Ply: pneumolysin, CDC toxin from Streptococcus pneumoniae, recombinant His-tagged | – | 27.8 | 6.62 |
